Experimental data as given in US11566000B2, “Crystalline form of sofpironium bromide and preparation method thereof” (dated 2023).

Test: Hygroscopic property and stability test of crystalline forms (dynamic vapor sorption: DVS)
[1] = DVS sorption-desorption isotherm 0 to 95% RH, 25° C.
[2] = DVS sorption-desorption isotherm 0 to 95% RH, 25° C., crystalline form after the test
[3] = cycle that humidity is increased from 0% RH to 95% RH, and returned to 0% RH

| SMILES | Hygroscopicity (weight change) [1] | crystal transition [2] | crystal transition [3] |
| --- | --- | --- | --- |
| CCOC(=O)C[N@@+]1(C)CC[C@@H](OC(=O)[C@](O)(c2ccccc2)C2CCCC2)C1.[Br-] | Not observed (“Not observed” means that the weight increased by 3% or less) | Observed | crystal transition was observed |
| CCOC(=O)C[N@+]1(C)CC[C@@H](OC(=O)[C@](O)(c2ccccc2)C2CCCC2)C1.[Br-] | Not observed (“Not observed” means that the weight increased by 3% or less) | Not observed | crystal transition was not observed |
